Read-outs that look alike come from different tables or passages of the source.
Experiments:
[1] = test system: PBP1, PBP2 and PBP3; type: binding, Neisseria gonorrhoeae ATCC 49226; conditions: strain ATCC 49226; for Target Selectivity: selective if IC50 at least 4-fold lower than next most inhibited PBP
[2] = test system: N. gonorrhoeae ATCC 49226; assay: MIC, CLSI broth microdilution; conditions: strain ATCC 49226; ratio between the MIC and the minimum IC50 value
[3] = test system: N. gonorrhoeae ATCC 19424; assay: MIC, CLSI broth microdilution; conditions: strain ATCC 19424; ratio between the MIC and the minimum IC50 value
[4] = test system: PBP1, PBP2 and PBP3; conditions: both strains; selective = IC50 at least 4-fold lower than next most inhibited PBP
[5] = test system: PBP1, PBP2 and PBP3; type: binding, Neisseria gonorrhoeae ATCC 19424; conditions: strain ATCC 19424; for Target Selectivity: selective if IC50 at least 4-fold lower than next most inhibited PBP
[6] = molecular target: T1, PBP3 (Neisseria gonorrhoeae, UniProt Q5FAB9); conditions: strain ATCC 49226
T1 sequence (Q5FAB9 22-469): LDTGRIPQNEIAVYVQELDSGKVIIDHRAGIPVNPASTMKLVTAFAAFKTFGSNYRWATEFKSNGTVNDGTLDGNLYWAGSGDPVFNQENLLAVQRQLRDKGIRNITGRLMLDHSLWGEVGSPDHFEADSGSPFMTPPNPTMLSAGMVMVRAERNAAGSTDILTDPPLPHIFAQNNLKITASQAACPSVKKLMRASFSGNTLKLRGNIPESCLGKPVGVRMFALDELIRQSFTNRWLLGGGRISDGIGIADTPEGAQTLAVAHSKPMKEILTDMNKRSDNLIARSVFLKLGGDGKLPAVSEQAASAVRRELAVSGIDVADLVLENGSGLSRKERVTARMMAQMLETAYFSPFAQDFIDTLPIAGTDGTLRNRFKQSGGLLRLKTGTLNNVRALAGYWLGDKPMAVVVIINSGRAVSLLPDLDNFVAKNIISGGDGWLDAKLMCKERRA

[7] = molecular target: T1, PBP3; conditions: read-out: IC50 for PBP3; across both strains ATCC 19424 and ATCC 49226
[8] = molecular target: T1, PBP3; conditions: strain ATCC 19424
[9] = read-out: IC50 PBP3, membrane preparation, 30 min drug then Bocillin FL

| Structure (SMILES) | Target Selectivity [1] | MIC/min. IC50 [2] | MIC/min. IC50 [3] | PBP selectivity [4] | Target Selectivity [5] | IC50 [6, 9] [nM] | IC50 [7] [nM] | IC50 [8, 9] [nM] | min. IC50 (minimum observed IC50 value) [1] [µg/mL] | min. IC50 (minimum observed IC50 value) [5] [µg/mL] | IC50 ([8]; read-out: IC50 PBP3 (Table S1)) [nM] | IC50 ([6]; read-out: IC50 PBP3 (Table S1)) [nM] |
| --- | --- | --- | --- | --- | --- | --- | --- | --- | --- | --- | --- | --- |
| CC(C)(O/N=C(\C(=O)N[C@@H]1C(=O)N2C(C(=O)[O-])=C(C[n+]3ccccc3)CS[C@H]12)c1csc(N)n1)C(=O)O [CAZ, ceftazidime] | PBP2 | 3.20 | 1.60 | – | – | – | – | – | – | – | – | – |
| O=C(NC1CCNCC1)[C@@H]1CC[C@@H]2CN1C(=O)N2OS(=O)(=O)O [REL, relebactam] | PBP3 | 390.84 | 403.15 | PBP3 selective binding | PBP3 | – | – | – | – | – | – | – |
| CO[C@@]1(NC(=O)Cc2cccs2)C(=O)N2C(C(=O)O)=C(COC(N)=O)CS[C@@H]21 [FOX, cefoxitin] | PBP3 | 50.00 | 25.00 | – | PBP3 | 23.4 | 23.4 | 23.4 | – | – | – | – |
| C[C@@H](O)[C@H]1C(=O)N2C(C(=O)O)=C(S[C@@H]3CN[C@H](C(=O)N(C)C)C3)[C@H](C)[C@H]12 [MEM, meropenem] | PBP2 and 3 | 1.60 | 0.27 | – | PBP2 and 3 | 26.1 | – | 52.2 | 0.01 | 0.03 | 78.2 | – |
| Cn1c(N)c(NC(=O)NCCN)c[n+]1CC1=C(C(=O)O)N2C(=O)[C@@H](NC(=O)/C(=N\OC(C)(C)C(=O)[O-])c3nsc(N)n3)[C@H]2SC1 [TOL, ceftolozane] | PBP2 | 0.93 | 0.80 | – | – | – | – | – | – | – | – | – |
| CC1(C)S[C@@H]2[C@H](NC(=O)C(C(=O)O)c3ccccc3)C(=O)N2[C@H]1C(=O)O (stereo partly drawn) [CAR, carbenicillin] | PBP3 | 1.43 | 0.25 | – | – | – | – | 1510 | – | – | 1690 | 925 |
| CO/N=C(\C(=O)N[C@@H]1C(=O)N2C(C(=O)O)=C(CSc3nc(=O)c(=O)[nH]n3C)CS[C@H]12)c1csc(N)n1 [CRO, ceftriaxone] | – | – | – | – | – | 126 | – | 126 | – | – | – | – |
| CCO/N=C(\C(=O)N[C@@H]1C(=O)N2C(C(=O)[O-])=C(Sc3nc(-c4cc[n+](C)cc4)cs3)CS[C@H]12)c1nsc(N)n1 [CPT, ceftaroline] | PBP2 | 2.37 | 0.21 | – | – | – | – | – | – | – | – | – |
| NC(=O)[C@@H]1CC[C@@H]2CN1C(=O)N2OS(=O)(=O)O [AVI, avibactam] | PBP3 | 94.81 | 54.94 | PBP3 selective binding | PBP3 | – | – | – | – | – | – | – |
| C=CC1=C(C(=O)O)N2C(=O)[C@@H](NC(=O)/C(=N\OCC(=O)O)c3csc(N)n3)[C@H]2SC1 [CFM, cefixime] | PBP2 | 0.80 | 0.40 | – | – | – | – | – | – | – | – | – |
| CC1(C)S[C@@H]2[C@H](/N=C/N3CCCCCC3)C(=O)N2[C@H]1C(=O)O [MEC, amdinocillin] | PBP2 | 2.72 | 0.75 | – | – | – | – | 36600 | – | – | – | – |
| C[C@@H](O)[C@H]1C(=O)N2C(C(=O)O)=C(SCCN=CN)C[C@H]12 [IPM, imipenem] | PBP3 | 6.40 | 3.20 | – | PBP3 | 33.4 | – | 33.4 | – | – | – | – |
| C[C@]1(Cn2ccnn2)[C@H](C(=O)O)N2C(=O)C[C@H]2S1(=O)=O [TZ, tazobactam] | PBP2 | 0.69 | 0.12 | selective for PBP2 | – | – | – | – | – | – | – | – |
| C[C@@H](O)[C@H]1C(=O)N2C(C(=O)O)=C(S[C@@H]3CN[C@H](C(=O)Nc4cccc(C(=O)O)c4)C3)[C@H](C)[C@H]12 [ETP, ertapenem] | PBP2 and 3 | 0.80 | 0.20 | – | PBP2 and 3 | 21 | – | 63.1 | 0.01 | 0.02 | 42.1 | – |
